Assay results taken from paper PMC3351444, “Molecular Evolution of a Peptide GPCR Ligand Driven by Artificial Neural Networks” (PLoS ONE, 2012).

Molecular target: T1, human CMKLR1 (Homo sapiens, UniProt Q99788)
T1 construct: host or cells: HEK293A (Invitrogen), stably expressing human Gα15
T1 sequence (Q99788 1-373): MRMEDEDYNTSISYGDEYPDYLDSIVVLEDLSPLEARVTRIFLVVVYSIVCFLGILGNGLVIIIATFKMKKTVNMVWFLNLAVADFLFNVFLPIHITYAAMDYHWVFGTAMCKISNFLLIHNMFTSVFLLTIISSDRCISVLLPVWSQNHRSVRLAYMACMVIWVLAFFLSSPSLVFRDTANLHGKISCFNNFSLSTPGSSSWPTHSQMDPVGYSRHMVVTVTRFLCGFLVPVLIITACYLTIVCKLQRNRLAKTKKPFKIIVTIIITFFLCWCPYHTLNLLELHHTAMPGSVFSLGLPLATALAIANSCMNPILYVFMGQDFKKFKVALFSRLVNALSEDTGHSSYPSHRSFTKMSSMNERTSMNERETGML
Test: Ca2+ mobilization (CellLux imaging) agonist assay in HEK293A cells expressing CMKLR1 and Gα15
Assay type: cell-based
Method: HEK293A cells (Invitrogen) expressing CMKLR1 and Gα15 were seeded at 5*10^4 cells/well in a poly-D-lysine coated 96-well black well/clear bottom plate (BD Falcon) and cultured overnight. From eighteen to twenty-four hours later, cells were loaded with FLUO4-AM (Invitrogen). Then the cells were washed two times with C1 solution (130 mM NaCl, 5 mM KCl, 10 mM HEPES pH 7.4, 2 mM CaCl2, and 10 mM Glucose). After the final wash, a 100 µL of residual volume remained on the cells. Peptides were dissolved in 10% DMSO to a concentration of 1 mM and were diluted in C1 solution with 0.1 % BSA. They were aliquoted as 2x solutions in 96-well plates and were simultaneously transferred by the robotic system within the imager from the ligand plate to the cell plate. […] Fluorescence data was generated in duplicate and experiments were repeated for at least three times. […] For the calculation of concentration-response curves, signals of two wells receiving the same concentration of test substances were averaged and the fluorescence changes of corresponding buffer C1 wells were subtracted. Signals were normalized to background fluorescence. For the calculation of EC50 values, plots of amplitude versus concentrations were prepared in SigmaPlot 11.

With `C[C@H](NC(=O)[C@H](Cc1ccccc1)NC(=O)[C@H](CCC(N)=O)NC(=O)CNC(=O)[C@@H]1CCCN1C(=O)[C@H](Cc1ccccc1)NC(=O)[C@@H](N)Cc1ccc(O)cc1)C(=O)N[C@@H](Cc1ccccc1)C(=O)NCC(=O)O` the EC50 was 0.79 ± 0.54 nM.
